Experimental findings from patent US9073858B2, “Methods of targeted drug development” (priority 2010, dated 2015) are described below.

Where two headings read alike, the source gives them in different places.

The test system of this assay is annexin V in A549 cells. Particulars: reference 4.0 μM camptothecin or 1.0 μM staurosporin. From the text:
Assays that measure apoptosis are utilized to determine whether or not compounds can induce programmed cell death in cancer cells. Annexin V is a protein that is used to detect apoptosis by binding to phosphatidylserine expressed on membranes of dead or dying cells. Fluorescently tagged with FITC, it can he used in conjunction with 7-aminoactinomycin D to determine the percentage of cells undergoing apoptosis via flow cytometry. Cells in early apoptosis will emit an FITC signal which will eventually be replaced by the far red 7-AAD signal that is associated with cell membrane permeability due to necrosis.
In brief, for the Annexin V Assay, compounds were added to cells plated in 6-well plates. Treated cells were incubated for up to 30 hours before addition of fluorescent cell marker probes that detect the presence of annexin V. The percentage of cells undergoing apoptosis and necrosis were determined by flow cytometry.
On day 2, working solutions of compounds (at 1000×) were prepared. […]
For flow cytometry analysis of the Annexin V Assay, sample acquisition was on the BD LSR II manufactured by BD Biosciences, San Jose, Calif. […] Percent (%)Total apoptosis was calculated as early (quadrant 4)+late (quadrant 2). Percent (%) ratio apoptosis was calculated as (experimental-No treatment/positive control)*100. […]

For `Cc1cc(Cl)cnc1NC(c1cccc(Cl)c1Cl)c1ccc2cccnc2c1O` (centres unmarked) [AD4-13147], the “% Relative to Reference Cpd.” value (1 μM) amounted to 95% and the “% Relative to Reference Cpd.” value (10 μM) is recorded as 92%.
